Earlier results as cited in patent US20260347325A1, “DIPHENYLPYRAZOLE COMPOUNDS AND THEIR USE” (INSTITUT NATIONAL DE LA SANTÉ ET DE LA RECHERCHE MÉDICALE, priority 2022, published 2026).

Key:
amyloid load = details: in words; clinical trials; cited from earlier work
Tau = details: in words; clinical trials; cited from earlier work

Substance: Aducanumab: Aducanumab immunotherapy
- amyloid load (amyloid load): reduces the amyloid load
- Tau PET imaging (Tau): reduces the amyloid load and Tau PET imaging
